## Cyclic peptide permeability, from CycPeptMPDB

Data: CycPeptMPDB; original report Kelly et al. 2021, doi:10.1021/jacs.0c06115.

PAMPA measures passive passage through an artificial lipid membrane.
Permeability is given as log10 of P in cm/s; higher (less negative) is more permeable.

SMILES,PAMPA (log10 cm/s)
CC(=O)N1CCC[C@H]1C(=O)N[C@@H]1C(=O)N[C@H](CC(C)C)C(=O)N[C@H](CC(C)C)C(=O)N(C)[C@@H](CC(C)C)C(=O)N[C@@H](CC(C)C)C(=O)N(C)[C@H](C)C(=O)N[C@@H](CC(C)C)C(=O)N2CCC[C@@H]2C(=O)O[C@@H]1C,-5.65
CC(=O)N1CCC[C@H]1C(=O)N(C)[C@H](CC(C)C)C(=O)N[C@@H]1C(=O)N(C)[C@@H](CC(C)C)C(=O)N(C)[C@H](CC(C)C)C(=O)N[C@H](CC(C)C)C(=O)N(C)[C@@H](C)C(=O)N[C@H](CC(C)C)C(=O)N2CCC[C@@H]2C(=O)O[C@@H]1C,-5.92
CC(=O)N1CCC[C@@H]1C(=O)N(C)[C@H](CC(C)C)C(=O)N[C@@H]1C(=O)N[C@@H](CC(C)C)C(=O)N(C)[C@H](CC(C)C)C(=O)N(C)[C@H](CC(C)C)C(=O)N(C)[C@H](C)C(=O)N[C@H](CC(C)C)C(=O)N2CCC[C@@H]2C(=O)O[C@@H]1C,-5.94
CC(=O)N[C@@H]1C(=O)N2CCC[C@H]2C(=O)N(C)[C@H](CC(C)C)C(=O)N[C@@H](CC(C)C)C(=O)N[C@@H](CC(C)C)C(=O)N[C@@H](CC(C)C)C(=O)N[C@@H](C)C(=O)N[C@@H](CC(C)C)C(=O)N2CCC[C@@H]2C(=O)O[C@@H]1C,-6.64
CC(=O)N1CCC[C@H]1C(=O)N(C)[C@@H](CC(C)C)C(=O)N[C@@H]1C(=O)N[C@H](CC(C)C)C(=O)N(C)[C@H](CC(C)C)C(=O)N[C@H](CC(C)C)C(=O)N(C)[C@@H](C)C(=O)N[C@@H](CC(C)C)C(=O)N2CCC[C@@H]2C(=O)O[C@@H]1C,-5.22
CC(=O)N1CCC[C@@H]1C(=O)N(C)[C@H](CC(C)C)C(=O)N[C@@H]1C(=O)N[C@H](CC(C)C)C(=O)N[C@H](CC(C)C)C(=O)N[C@@H](CC(C)C)C(=O)N(C)[C@H](C)C(=O)N[C@H](CC(C)C)C(=O)N2CCC[C@H]2C(=O)O[C@@H]1C,-5.99
CC(=O)N1CCC[C@@H]1C(=O)N(C)[C@@H](CC(C)C)C(=O)N[C@@H]1C(=O)N[C@H](CC(C)C)C(=O)N(C)[C@@H](CC(C)C)C(=O)N(C)[C@H](CC(C)C)C(=O)N[C@@H](C)C(=O)N[C@H](CC(C)C)C(=O)N2CCC[C@H]2C(=O)O[C@@H]1C,-5.40
CC(=O)N1CCC[C@H]1C(=O)N(C)[C@H](CC(C)C)C(=O)N[C@@H]1C(=O)N(C)[C@@H](CC(C)C)C(=O)N(C)[C@@H](CC(C)C)C(=O)N[C@@H](CC(C)C)C(=O)N(C)[C@@H](C)C(=O)N[C@H](CC(C)C)C(=O)N2CCC[C@@H]2C(=O)O[C@@H]1C,-5.18
CC(=O)N1CCC[C@@H]1C(=O)N(C)[C@H](CC(C)C)C(=O)N[C@@H]1C(=O)N(C)[C@@H](CC(C)C)C(=O)N[C@@H](CC(C)C)C(=O)N[C@@H](CC(C)C)C(=O)N[C@H](C)C(=O)N[C@H](CC(C)C)C(=O)N2CCC[C@@H]2C(=O)O[C@@H]1C,-6.95
CC(=O)N1CCC[C@H]1C(=O)N(C)[C@@H](CC(C)C)C(=O)N[C@@H]1C(=O)N[C@@H](CC(C)C)C(=O)N(C)[C@@H](CC(C)C)C(=O)N(C)[C@H](CC(C)C)C(=O)N(C)[C@H](C)C(=O)N[C@@H](CC(C)C)C(=O)N2CCC[C@@H]2C(=O)O[C@@H]1C,-5.30
CC(=O)N1CCC[C@@H]1C(=O)N(C)[C@@H](CC(C)C)C(=O)N[C@@H]1C(=O)N[C@@H](CC(C)C)C(=O)N[C@@H](CC(C)C)C(=O)N(C)[C@@H](CC(C)C)C(=O)N(C)[C@H](C)C(=O)N[C@@H](CC(C)C)C(=O)N2CCC[C@H]2C(=O)O[C@@H]1C,-5.84
CC(=O)N1CCC[C@H]1C(=O)N(C)[C@H](CC(C)C)C(=O)N[C@@H]1C(=O)N[C@H](CC(C)C)C(=O)N[C@H](CC(C)C)C(=O)N(C)[C@H](CC(C)C)C(=O)N(C)[C@@H](C)C(=O)N[C@@H](CC(C)C)C(=O)N2CCC[C@H]2C(=O)O[C@@H]1C,-5.69
CC(=O)N1CCC[C@H]1C(=O)N[C@@H]1C(=O)N[C@H](CC(C)C)C(=O)N[C@@H](CC(C)C)C(=O)N[C@H](CC(C)C)C(=O)N[C@@H](CC(C)C)C(=O)N[C@H](C)C(=O)N[C@@H](CC(C)C)C(=O)N2CCC[C@@H]2C(=O)O[C@@H]1C,-6.69
CC(=O)N1CCC[C@H]1C(=O)N[C@@H]1C(=O)N(C)[C@H](CC(C)C)C(=O)N[C@@H](CC(C)C)C(=O)N[C@@H](CC(C)C)C(=O)N(C)[C@@H](CC(C)C)C(=O)N[C@@H](C)C(=O)N[C@@H](CC(C)C)C(=O)N2CCC[C@@H]2C(=O)O[C@@H]1C,-6.01
CC(=O)N1CCC[C@@H]1C(=O)N(C)[C@@H](CC(C)C)C(=O)N[C@@H]1C(=O)N(C)[C@H](CC(C)C)C(=O)N[C@H](CC(C)C)C(=O)N[C@H](CC(C)C)C(=O)N[C@H](C)C(=O)N[C@@H](CC(C)C)C(=O)N2CCC[C@H]2C(=O)O[C@@H]1C,-6.05
CC(=O)N1CCC[C@H]1C(=O)N(C)[C@@H](CC(C)C)C(=O)N[C@@H]1C(=O)N[C@@H](CC(C)C)C(=O)N[C@H](CC(C)C)C(=O)N(C)[C@@H](CC(C)C)C(=O)N(C)[C@H](C)C(=O)N[C@@H](CC(C)C)C(=O)N2CCC[C@H]2C(=O)O[C@@H]1C,-5.74

Extract of 2 entries:

SMILES	PAMPA (log10 cm/s)
CC(=O)N1CCC[C@H]1C(=O)N[C@@H]1C(=O)N[C@H](CC(C)C)C(=O)N[C@@H](CC(C)C)C(=O)N[C@H](CC(C)C)C(=O)N[C@@H](CC(C)C)C(=O)N[C@H](C)C(=O)N[C@@H](CC(C)C)C(=O)N2CCC[C@@H]2C(=O)O[C@@H]1C	-6.69
CC(=O)N1CCC[C@H]1C(=O)N(C)[C@@H](CC(C)C)C(=O)N[C@@H]1C(=O)N[C@H](CC(C)C)C(=O)N(C)[C@H](CC(C)C)C(=O)N[C@H](CC(C)C)C(=O)N(C)[C@@H](C)C(=O)N[C@@H](CC(C)C)C(=O)N2CCC[C@@H]2C(=O)O[C@@H]1C	-5.22

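Conditions beyond the assay type are not listed; see the original paper. Other peptides of the study may be missing here. Entries at the database's floor value (log10 P of -10) are not listed.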